Measurements: patent US11040987B2 (TenNor Therapeutics Limited, priority 2019, dated 2021)
pIC50: −log10 of the molar value.

Chains of the proteins cited; added tags and fusions are not shown. Residues count along the entry.
UniProt Q9F663, 25-293, looked up, species assumed: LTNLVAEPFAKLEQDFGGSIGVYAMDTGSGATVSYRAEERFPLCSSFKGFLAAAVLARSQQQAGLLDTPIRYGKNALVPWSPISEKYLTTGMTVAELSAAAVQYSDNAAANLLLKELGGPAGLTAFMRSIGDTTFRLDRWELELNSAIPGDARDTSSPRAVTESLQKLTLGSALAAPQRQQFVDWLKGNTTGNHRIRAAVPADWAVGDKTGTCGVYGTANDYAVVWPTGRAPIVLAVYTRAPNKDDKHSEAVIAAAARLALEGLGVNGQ

Target: T1, KPC-2 (Klebsiella pneumoniae, UniProt Q9F663)
T1 construct: made in house
Assay: β-lactamase inhibition, spectrophotometric assay of nitrocefin hydrolysis
Assay type: biochemical
Text: Hydrolytic inactivation of the β-lactam antibiotics by β-lactamases is the most widespread drug resistant mechanism and the most challenge clinically among Gram-negative bacterial pathogens. Based on the amino acid sequences, the β-lactamases are grouped into four classes (Ambler classification), of which A, C and D are serine hydrolases and B encompasses metallo-β-lactamases. The IC50 of selected derivatives disclosed herein (identified with reference to example number) plus six reference β-lactam or β-lactamase inhibitors were determined against 7 representative β-lactamases of various classes in a standard spectrophotometric assay of nitrocefin hydrolysis. The assay is performed in 384-well plate. The seven recombinant β-lactamases AmpC_AB (from A. baumannii), AmpC_PA (from P. aeruginosa), KPC-2, NDM-1, IMP-1, VIM-1 and OXA 24/40) are expressed and purified. The reaction buffer for class A, C and D enzymes is 100 mM Na2HPO4—KH2PO4 (pH 7.1) plus 0.005% Tween-20, and for class B enzymes 10 μM ZnSO4 is added. […] The 50 μL of reaction solution composed of 2 pM of β-lactamase, 200 μM of nitrocefin and series of 3-fold dilutions of test or control compounds are added by Cybio SELMA system into 384-plate and incubated in dark at 25° C. for 2 hours. The OD490 is read in MC SpectraMax Plus384 plate reader.

O=C(NC1CCNCC1)[C@@H]1CC[C@@H]2CN1C(=O)N2OS(=O)(=O)O [Relebactam, reference compound]
pIC50: 6.34
